## scFv variants of Ab-95 (light chain) against a SARS-CoV-2 spike peptide

Target peptide (SARS-CoV-2 spike, HR2 region): PDVDLGDISGINAS

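In library AAYL52, one, two or three CDR residues were substituted; doubles and triples were drawn at random. The scFvs were displayed on barcoded MATa yeast, the peptide on MATalpha yeast. Pairs that bind mate more often; barcode pairs of the diploids are counted by sequencing. Each replicate has its own calibration line, from reference interactions of the BCL2 family. There are three technical replicates.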

Ab-95 is the parent antibody, in scFv form: VH, then the linker GGGGSGGGGSGGGGS, then VL. The heavy chain is unchanged in all variants.
VH: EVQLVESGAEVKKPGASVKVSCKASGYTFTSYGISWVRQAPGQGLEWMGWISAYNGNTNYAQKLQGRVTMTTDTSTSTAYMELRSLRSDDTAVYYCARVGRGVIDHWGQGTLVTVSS
VL: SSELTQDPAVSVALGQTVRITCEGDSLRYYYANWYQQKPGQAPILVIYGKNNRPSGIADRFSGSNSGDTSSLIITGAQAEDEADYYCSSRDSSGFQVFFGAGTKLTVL

Variants are written as CDR1, CDR2 and CDR3 of the light chain (limits as in the source). Parent: EGDSLRYYYAN, GKNNRPS, SSRDSSGFQVF. The read-out is the apparent dissociation constant on a log10 scale (nM): the lower, the stronger. Replicates are averaged; those with no signal do not enter the mean. An entry "n.d." has no value in the source: the pair was not observed among the diploids in that replicate. This suggests poor binding but is not conclusive. Empty control strains, which show no peptide, gave a signal in 28% of pairings with library AAYL52; the median was 3.91 and 95% of these signals were weaker than 2.90. No background was subtracted. Also given: how often the same scFv was detected with the empty control strains, with their mean in brackets.

CDR-L1,CDR-L2,CDR-L3,log10 Kd (nM) by replicate,"mean, log10 nM",control signals
EGDSLRYYYAN,GKNNRPS,SSPDSSGFQVH,n.d. / n.d. / n.d.,n.d.,5/9 (3.65)
EGDSLRHYYAN,GKNNRPS,SCRDYSGFQVF,2.37 / 2.33 / 1.59,2.10,1/9 (3.86)
EGDHLRYCYAN,GKNNRPS,SSRDSSGFEVF,2.40 / 2.70 / 2.14,2.41,0/9
EGDSLRYYYAN,GKNNQPS,NSRDSSGFTVF,n.d. / n.d. / n.d.,n.d.,1/9 (3.13)
DGDSLRYYYAN,GKNNRPS,TSRDSSGFQVF,4.66 / 2.82 / n.d.,3.74,3/9 (4.18)
EGDSLRYYYAI,GKNNRPM,SSRDHSGFQVF,n.d. / n.d. / n.d.,n.d.,4/9 (4.64)
EGDSLRYYYAG,GKNNRPS,SSRVSSGFQVF,n.d. / 5.21 / n.d.,5.21,2/9 (3.93)
EGDSLRYYQAN,GKNNSPS,SSRDSSPFQVF,n.d. / n.d. / n.d.,n.d.,0/9
ESDSLRYYYAN,GKNNRPS,SSMDSDGFQVF,3.25 / 3.49 / n.d.,3.37,2/9 (3.90)
EGDMLRYYYAN,GKNNRPS,SSRDSSGVQVF,2.85 / 3.01 / n.d.,2.93,3/9 (4.43)
EGDSLRYQYAN,GKNIRPS,SSRDSSGFGVF,2.01 / 1.89 / 1.26,1.72,2/9 (4.08)
EWDSLRYYYAN,GKNYRPS,SRRDSSGFQVF,n.d. / n.d. / n.d.,n.d.,1/9 (3.13)
EGDSLRYAYPN,GKNNRPS,SSRDSSGIQVF,2.67 / 2.94 / 2.56,2.72,3/9 (3.94)
EGDYLRYYYAN,GKNNRPS,DSRDSSGFWVF,3.04 / 2.94 / n.d.,2.99,1/9 (4.03)
EGDNLRYYYNP,GKNNRPS,SSRDSSGFQVF,3.09 / n.d. / n.d.,3.09,3/9 (3.72)
EGDSLRYYYFY,GKNNRPA,SSRDSSGFQVF,3.22 / 2.82 / 2.13,2.72,2/9 (3.46)
EGDSLRYYKAN,GKNNRPS,SSRDSSWFQWF,3.20 / 3.18 / n.d.,3.19,3/9 (4.59)
EGDSLIYGYAN,GKNNRPS,SLRDSSGFQVF,1.10 / 1.18 / 0.76,1.01,4/9 (4.39)
EGDSLRYYYAN,DKNNRPL,SGRDSSGFQVF,3.45 / 3.19 / 2.62,3.09,1/9 (4.72)
EGDSLRYYYAI,GKNNRPS,SSRHSSGFQVF,3.29 / n.d. / n.d.,3.29,4/9 (3.60)
EGDSARYYYAN,GKKNRPS,SSRDSSGCQVF,n.d. / n.d. / n.d.,n.d.,2/9 (3.89)
EGDSLRYYAAN,GKNNRPS,SSRDSSGFIVC,1.60 / 1.64 / 0.82,1.35,2/9 (3.40)
EGDSLMYGYAN,MKNNRPS,SSRDSSGFQVF,2.93 / 2.75 / 2.69,2.79,5/9 (4.21)
EGDHMRYYYAN,GKNNRPS,SSRDSSLFQVF,n.d. / n.d. / n.d.,n.d.,3/9 (3.93)
EGDSLRYYYYN,GKNNRPS,SSRDSSGVQVY,n.d. / n.d. / n.d.,n.d.,3/9 (3.95)
ETVSLRYYYAN,GKNNRPS,SSRDSSGFIVF,n.d. / n.d. / n.d.,n.d.,0/9
EGYSLGYYYAN,GKNNAPS,SSRDSSGFQVF,5.08 / 3.71 / n.d.,4.40,5/9 (3.92)
EGKSLRYYYAN,FKNNAPS,SSRDSSGFQVF,n.d. / n.d. / n.d.,n.d.,0/9
EGDSLRDYYAN,GKNNRPN,SSRDSSSFQVF,1.51 / 1.40 / 1.08,1.33,1/9 (4.92)
EGDSLRYYYAN,GVYNRPS,SSRDSSGFQVF,5.26 / 3.56 / n.d.,4.41,2/9 (3.11)
ENDSLRYYYAN,GKNPAPS,SSRDSSGFQVF,3.68 / n.d. / 3.71,3.69,4/9 (3.63)
EGDSLRYYYAN,GKNNRPS,SSRESSYFQDF,3.29 / n.d. / 4.01,3.65,2/9 (4.35)
EGDSKRYYYAN,GKNQRPS,SSRDWSGFQVF,4.73 / 4.56 / 4.37,4.56,4/9 (4.04)
EPDSLRAYYAN,GKNNRNS,SSRDSSGFQVF,n.d. / 4.57 / 4.28,4.42,2/9 (3.61)
EGDSLRYYYAN,GCNNRPS,SGGDSSGFQVF,3.35 / 3.56 / 3.95,3.62,2/9 (3.63)
EGDSLRRYCAN,GKNNDPS,SSRDSSGFQVF,3.86 / 4.83 / 3.23,3.98,5/9 (4.23)
EGDSLRYYYAN,GKTNRPS,SSRDSSQFQVF,4.03 / 3.45 / 4.37,3.95,5/9 (3.78)
EGDSLRYYYAE,GKNNRPS,SSRRSSGFQTF,4.59 / n.d. / n.d.,4.59,4/9 (3.51)
EGDSLRYYYAN,EKNNRPS,SSRDSSGTLVF,n.d. / 4.53 / n.d.,4.53,2/9 (2.54)
EGDWLRYYYAN,GKNYRPV,SSRDSSGFQVF,3.45 / 3.01 / n.d.,3.23,5/9 (4.21)
EGVSPRYYYAN,GKNNRPS,SSRDLSGFQVF,3.04 / 2.46 / 3.67,3.05,0/9
EGDAFRYYYAN,GKNNRPS,SSRLSSGFQVF,3.64 / 3.97 / 3.58,3.73,3/9 (3.36)
EGDSLRYYYAN,GTNNRPA,CSRDSSGFQVF,2.73 / 2.89 / 3.91,3.18,4/9 (4.54)
EGDSLRYYYAN,GKNNRPS,SSRVSSMQQVF,2.50 / 2.31 / 2.18,2.33,1/9 (3.10)
EEDSLRYYYAN,GKNNRPS,SSRDYSGFLVF,n.d. / n.d. / n.d.,n.d.,4/9 (3.90)
EADSLREYYAN,GKNNRPS,SSRDSGGFQVF,2.78 / 3.16 / 4.37,3.44,1/9 (3.94)
EGDPLSDYYAN,GKNNRPS,SSRDSSGFQVF,2.62 / 2.53 / 2.22,2.45,3/9 (4.16)
EGKSLRYYYAN,GGNNRPS,SSRDSSGFQTF,3.17 / 2.78 / 3.46,3.14,2/9 (3.83)

Picked from the list: the 3 lowest averages where every replicate gave a value.

CDR-L1,CDR-L2,CDR-L3,log10 Kd (nM) by replicate,"mean, log10 nM",control signals
EGDSLIYGYAN,GKNNRPS,SLRDSSGFQVF,1.10 / 1.18 / 0.76,1.01,4/9 (4.39)
EGDSLRDYYAN,GKNNRPN,SSRDSSSFQVF,1.51 / 1.40 / 1.08,1.33,1/9 (4.92)
EGDSLRYYAAN,GKNNRPS,SSRDSSGFIVC,1.60 / 1.64 / 0.82,1.35,2/9 (3.40)

Values reported by Engelhart et al. 2022, doi:10.1038/s41597-022-01779-4 (FLAb copy).